scFv variants of Ab-91 (heavy chain) against a SARS-CoV-2 spike peptide

Source: Engelhart et al. 2022 (doi:10.1038/s41597-022-01779-4), MIT Lincoln Laboratory and A-Alpha Bio; data file from the FLAb repository.

Target peptide (SARS-CoV-2 spike, HR2 region): PDVDLGDISGINAS

Parent: Ab-91, a human scFv built as VL, a (GGGGS)3 linker, VH. Only the CDRs of the heavy chain vary.
VL: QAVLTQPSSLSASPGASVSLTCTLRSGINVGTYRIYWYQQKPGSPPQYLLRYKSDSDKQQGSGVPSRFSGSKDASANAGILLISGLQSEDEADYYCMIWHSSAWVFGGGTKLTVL
VH: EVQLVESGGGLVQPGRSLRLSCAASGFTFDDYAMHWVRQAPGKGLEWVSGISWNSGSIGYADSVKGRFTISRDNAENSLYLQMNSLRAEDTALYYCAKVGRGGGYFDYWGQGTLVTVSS

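The parent was found by panning a naive human phage display library on the peptide. In library AAYL51, one, two or three CDR residues were substituted; doubles and triples were drawn at random. The scFvs were displayed on barcoded MATa yeast, the peptide on MATalpha yeast. Mating (16 h, 30 °C) was followed by selection of diploids and sequencing of their barcodes. A regression on co-assayed BCL2-family reference pairs converts the normalised counts of each replicate to an apparent Kd. There are three technical replicates.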

Each variant is given by its three heavy chain CDRs, as the data file delimits them; those of the parent are GFTFDDYAMH, GISWNSGSIGYADSVK, VGRGGGYFDY.
Kd is apparent (estimated from mating counts) and averaged on the log scale over replicates with a signal. Smaller is tighter.
Where no diploid with the target was found in any replicate, the entry reads "nd": below detection, most likely a poor binder, though not proof of it.
In this assay the parent's reference entry averaged 72 nM; its copy inside this library read 7.5 nM.
Empty control strains, which show no peptide, gave a signal in 21% of pairings with library AAYL51; the median was 34 µM and 95% of these signals were weaker than 1.8 µM. No background was subtracted.

{"CDR-H1": "GFTFDDYAMH", "CDR-H2": "GISWSSQAIGYADSVK", "CDR-H3": "VGRGGGYFDY", "Kd": "7.7 µM", "replicates with signal": "3 of 3"}
{"CDR-H1": "GFTFDDYANH", "CDR-H2": "GISWNHGSIGYADHVK", "CDR-H3": "VGRGGGYFDY", "Kd": "28 µM", "replicates with signal": "2 of 3"}
{"CDR-H1": "GFTFDAYAMH", "CDR-H2": "GISWWSGSIGYADRVK", "CDR-H3": "VGRGGGYFDY", "Kd": "nd", "replicates with signal": "0 of 3"}
{"CDR-H1": "GFTFDDYAMH", "CDR-H2": "GISNESGSIGYADSVK", "CDR-H3": "VGRHGGYFDY", "Kd": "nd", "replicates with signal": "0 of 3"}
{"CDR-H1": "GFTFDDPAMH", "CDR-H2": "GISWNSGSIGYADSVK", "CDR-H3": "VGRGGGPMDY", "Kd": "nd", "replicates with signal": "0 of 3"}
{"CDR-H1": "GFTFDDYACH", "CDR-H2": "GISWNSGSIGYMDSVK", "CDR-H3": "VGRGGGYEDY", "Kd": "2.1 µM", "replicates with signal": "1 of 3"}
{"CDR-H1": "GFTFDDYAMH", "CDR-H2": "GMSWNSGSFGYADSVK", "CDR-H3": "VGRGGGYFDY", "Kd": "nd", "replicates with signal": "0 of 3"}
{"CDR-H1": "GWTFDDYAMH", "CDR-H2": "GISWNSGSIGYAISSK", "CDR-H3": "VGRGGGYFDY", "Kd": "44 µM", "replicates with signal": "1 of 3"}
{"CDR-H1": "GFTFDDYAMH", "CDR-H2": "GIVWNSGSIGYADSVK", "CDR-H3": "VFRGGGYHDY", "Kd": "4.8 µM", "replicates with signal": "1 of 3"}
{"CDR-H1": "GFTFLDYAMH", "CDR-H2": "GISWNSGSIGYADSGK", "CDR-H3": "VGRGCGYFDY", "Kd": "92 µM", "replicates with signal": "2 of 3"}
{"CDR-H1": "LFTFDDYAMH", "CDR-H2": "GISWNSGSIGYNDSVK", "CDR-H3": "VGRGGGYFDY", "Kd": "nd", "replicates with signal": "0 of 3"}
{"CDR-H1": "GFTFDDYAMM", "CDR-H2": "GISWNSGTIGYADSVK", "CDR-H3": "VGRGGAYFDY", "Kd": "37 µM", "replicates with signal": "2 of 3"}
{"CDR-H1": "KFTFDDYAMH", "CDR-H2": "GISWNSGSIGYADSVA", "CDR-H3": "VGRGDGYFDY", "Kd": "1.6 µM", "replicates with signal": "1 of 3"}
{"CDR-H1": "GATFDDYAMH", "CDR-H2": "GISWNSGSIGYADSVK", "CDR-H3": "VGRGGGYMFY", "Kd": "16 µM", "replicates with signal": "2 of 3"}
{"CDR-H1": "GFTFDDYAMH", "CDR-H2": "GISWNSGSIGYAILVK", "CDR-H3": "VGNGGGYFDY", "Kd": "nd", "replicates with signal": "0 of 3"}
{"CDR-H1": "GFTSDDYAMH", "CDR-H2": "KISWNSGTIGYADSVK", "CDR-H3": "VGRGGGYFDY", "Kd": "nd", "replicates with signal": "0 of 3"}
{"CDR-H1": "GFTFDLYAMH", "CDR-H2": "GISWNSGSIGYADSLE", "CDR-H3": "VGRGGGYFDY", "Kd": "17 µM", "replicates with signal": "2 of 3"}
{"CDR-H1": "GFTFDDYAEH", "CDR-H2": "GISWNSGSIGYNDSVK", "CDR-H3": "VGVGGGYFDY", "Kd": "26 µM", "replicates with signal": "2 of 3"}
{"CDR-H1": "GFTFDDYAMH", "CDR-H2": "VISWNSGSIGYADSVK", "CDR-H3": "VGVGTGYFDY", "Kd": "190 µM", "replicates with signal": "1 of 3"}
{"CDR-H1": "GFTFDDYAMH", "CDR-H2": "GIIWNSGSIGYPDSVK", "CDR-H3": "VTRGGGYFDY", "Kd": "nd", "replicates with signal": "0 of 3"}
{"CDR-H1": "GFTFDDYAMH", "CDR-H2": "GISWVSWSIGYADSVK", "CDR-H3": "VGRGGGYFMY", "Kd": "nd", "replicates with signal": "0 of 3"}
{"CDR-H1": "GFTFTDVCMH", "CDR-H2": "GISWNSGSIGYADSVK", "CDR-H3": "VGRGGGYFDY", "Kd": "370 µM", "replicates with signal": "2 of 3"}
{"CDR-H1": "GWTFDDYAMH", "CDR-H2": "GISWNSGSIGYADFVK", "CDR-H3": "VGRGGLYFDY", "Kd": "nd", "replicates with signal": "0 of 3"}